Test results from patent US7943618B2, “Btk protein kinase inhibitors” (Roche Palo Alto LLC, priority 2007, dated 2011).

The chains behind the UniProt entries cited, without tags or fusion partners.
UniProt Q06187, whole entry: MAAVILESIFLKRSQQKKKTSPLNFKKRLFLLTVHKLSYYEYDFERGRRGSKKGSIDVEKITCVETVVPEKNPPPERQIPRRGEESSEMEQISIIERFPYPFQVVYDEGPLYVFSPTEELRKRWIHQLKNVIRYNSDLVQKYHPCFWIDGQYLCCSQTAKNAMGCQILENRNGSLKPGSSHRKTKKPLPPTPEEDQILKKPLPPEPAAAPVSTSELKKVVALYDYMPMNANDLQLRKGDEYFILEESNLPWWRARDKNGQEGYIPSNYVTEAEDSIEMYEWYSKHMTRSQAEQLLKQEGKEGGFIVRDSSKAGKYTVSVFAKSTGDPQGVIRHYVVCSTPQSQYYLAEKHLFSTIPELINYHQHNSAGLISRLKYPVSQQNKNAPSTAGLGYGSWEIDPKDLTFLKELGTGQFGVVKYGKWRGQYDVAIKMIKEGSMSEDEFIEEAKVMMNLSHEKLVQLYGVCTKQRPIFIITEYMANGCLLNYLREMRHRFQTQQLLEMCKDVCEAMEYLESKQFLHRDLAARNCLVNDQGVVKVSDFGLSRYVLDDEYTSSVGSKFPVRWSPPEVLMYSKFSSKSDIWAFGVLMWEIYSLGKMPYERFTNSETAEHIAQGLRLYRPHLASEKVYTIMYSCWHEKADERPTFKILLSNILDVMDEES

Molecular target: Btk enzyme (His-tagged, full-length) (Homo sapiens, UniProt Q06187)
Assay: Bruton's Tyrosine Kinase (Btk) Inhibition Assay (33P filtration capture)
Assay type: biochemical
Settings: Bruton's tyrosine kinase Assay (Example 34); Table I pyridazinones; 100 μM ATP

Q: How did the IC50 turn out when Cn1nc(-c2cccc(CC(=O)N3CCN(C(C)(C)C)CC3)c2)cc(Nc2ccc(C(=O)N3CCOCC3)cn2)c1=O was run?
A: 33500 nM

Q: For Cc1c(NC(=O)c2ccc(C(C)(C)C)cc2)cccc1-c1cc(Nc2ccc(C(=O)N3CCC(O)CC3)cc2)c(=O)n(C)n1, which IC50 is on record?
A: 45 nM

Q: How did the IC50 turn out when Cn1nc(-c2cccc(CC(=O)N3CC(OC(C)(C)C)C3)c2)cc(Nc2ccc(C(=O)N3CCOCC3)cn2)c1=O was run?
A: 138 nM
